Measured values as given in patent US20250186419A1, “DOSING REGIMENS FOR TREATING PAIN” (VERTEX PHARMACEUTICALS INCORPORATED, priority 2023, published 2025).

Columns and labels:
[1] = system: acute pain after a bunionectomy; assay: Randomized, double-blind, placebo-controlled, 3-arm study of Compound 1 in acute pain after a bunionectomy (Example 5); details: Compound 1 100 mg first dose
[2] = system: acute pain after an abdominoplasty; assay: Randomized, double-blind, placebo-controlled, 3-arm study of Compound 1 in acute pain after an abdominoplasty (Example 6); details: Compound 1 100 mg first dose
[3] = system: pain following bunionectomy; assay: Randomized, double-blind, placebo-controlled, 5-arm study of Compound 1 in subjects with pain following bunionectomy (Example 4); details: Compound 1 high-dose group (100 mg first dose, then 50 mg q12h), HB/APAP 5 mg/325 mg q6h
[4] = then 50 mg q12 h (N = 426), HB/APAP 5 mg/325 mg q6 h (N = 431)
[5] = then 50 mg q12 h (N = 447), HB/APAP 5 mg/325 mg q6 h (N = 448)

COc1c([C@H]2[C@H](C(=O)Nc3ccnc(C(N)=O)c3)O[C@@](C)(C(F)(F)F)[C@H]2C)ccc(F)c1F [Compound 1, (2R,3S,4S,5R)-4-[[3-(3,4-difluoro-2-methoxy-phenyl)-4,5-dimethyl-5-(trifluoromethyl)tetrahydrofuran-2-carbonyl]amino]pyridine-2-carboxamide]
Proportion of subjects achieving ≥2-point reduction in NPRS from baseline [1, 4]: 90.1% | Time to ≥2-point reduction in NPRS from baseline (min), Median [1, 4]: 240 min | % reduction from baseline in mean NPRS at 48 hours ([1]; then 50 mg q12 h (n = 426), HB/APAP 5 mg/325 mg q6 h (n = 431)): 51% | SPID48, LS mean (SE) ([1]; NPRS 0 to 48 hours, oral, then 50 mg q12 h (n = 426), HB/APAP 5 mg/325 mg q6 h (n = 431)): 99.9 (4.5) | Proportion of subjects achieving ≥2-point reduction in NPRS from baseline [2, 5]: 90.6% | Time to ≥2-point reduction in NPRS from baseline (min), Median, 95% CI [2, 5]: 119 (90, 180) min | % reduction from baseline in mean NPRS at 48 hours ([2]; then 50 mg q12 h (n = 447), HB/APAP 5 mg/325 mg q6 h (n = 448)): 47% | SPID48, LS mean (SE) ([2]; NPRS 0 to 48 hours, oral, then 50 mg q12 h (n = 447), HB/APAP 5 mg/325 mg q6 h (n = 448)): 118.4 (4.3) | Incidence of headache (adverse event) [3]: 8% | Incidence of nausea (adverse event) [3]: 8%
